Measured values as given in patent US4339378A, “N-Acylcarnosine aluminum salts” (Nippon Chemiphar Co., Ltd., priority 1979, dated 1982).

Test system: Wister strain rats
Details: P.O., observed seven days

## N-acetylcarnosine aluminum salt
Female rats
  LD50: > 10,000 mg/kg
Male rats
  LD50: > 10,000 mg/kg

Like-named read-outs stand apart in the source and are kept apart here.
